For this test, the target named is C146S-dUMP complex (Escherichia coli, UniProt P0A884, C146S). The test can be described thus: biochemical. It counts as binding, E. coli.

Protein sequences, listed by entry. Tags and fused reporters are not part of them.
UniProt P0A884, whole entry C146S: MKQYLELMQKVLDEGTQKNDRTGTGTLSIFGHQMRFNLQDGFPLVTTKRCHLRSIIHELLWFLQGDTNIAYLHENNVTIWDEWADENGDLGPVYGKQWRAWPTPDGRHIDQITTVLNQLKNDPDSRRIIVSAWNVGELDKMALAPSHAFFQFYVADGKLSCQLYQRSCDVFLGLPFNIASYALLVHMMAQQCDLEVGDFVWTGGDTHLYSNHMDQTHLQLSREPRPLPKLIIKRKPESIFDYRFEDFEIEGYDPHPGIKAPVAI

What is called Kd is the equilibrium constant for the complex coming apart. A higher Kd goes with weaker binding. Take `Cc1nc2ccc(CN(C)c3ccc(C(=O)N[C@@H](CCC(=O)O)C(=O)O)s3)cc2c(=O)[nH]1` [Raltitrexed]: the Kd was around 500 nM.

The record behind these values is PMC5604227 (Biochemistry, 2016).
